# From US8993349B2, “Method for enhancing transport of semiconductor nanocrystals across biological membranes” (Life Technologies Corporation, priority 2000, dated 2015)
# Test system: SKBR3 cells
# Assay: Herceptin antibody immunostaining of SCNC-encoded SKBR3 cells
# Format: cell-based
# Conditions: SKBR3 cells encoded with green (530 nm) SCNCs vs unencoded; fluorescence microscopy
# Protocol: SKBR3 cells were seeded into an 8-well chamber slide at a density of 80,000 cells per well and encoded with green (530 nm) SCNCs using the cationic lipid BioPorter as described in Example 3. Encoded or unencoded cells were incubated overnight at 37° C., 5% CO2. Cells were washed three times with PBS, and fixed in the presence of 3.7% formaldehyde for 10 minutes. The cells were washed 3 times with PBS, and incubated in the presence of PBS/1% bovine serum albumin (BSA) at room temperature for 30 minutes to minimize non-specific binding.
# The cells in each well were incubated with 5 µg/ml herceptin antibody in PBS/1% BSA in a total volume of 150 1 for 30 min at room temperature. The cells were washed five times with PBS, and incubated with a 1:500 dilution of biotinylated goat anti-human IgG (Vector Laboratories, 1.5 mg/ml) for 30 minutes. The cells were washed again with PBS and incubated with a 1:400 dilution of streptavidin-conjugated Cy3 (Amersham, 1 mg/ml) for 30 minutes. The cells were washed again with PBS and the slide was mounted using 50% glycerol in PBS. The cells were imaged using a Nikon fluorescence microscope equipped with a Cy3 and green SCNC filter set. Control experiments indicate that binding of herceptin is unaffected by the SCNC code.
substance,measurement,value
herceptin: herceptin antibody used to immunostain SKBR3 breast cancer cells,"binding of herceptin, effect of SCNC encoding process or intracellular SCNC",unaffected
